Only a part is listed here, and it is no random draw. The source made the active and inactive calls. No stated cut-off is given here; in the data, active means fluorescence above about 47; inactive means the rest.
Test: green autofluorescence of compounds with avidin beads – biophysical, 488/530 nm, flow cytometry, artefact control, profiling panel (AID 1775)
Settings: compound fluorescence 488/530 nm, at 10 µM, stronger effect = higher value
For Cc1nc2ccc3ccccc3c2s1.O=[N+]([O-])c1cc([N+](=O)[O-])c(O)c([N+](=O)[O-])c1, the fluorescence (KMESF) was inactive: 10.
With O=[N+]([O-])c1cc([N+](=O)[O-])c(-n2nnc3ccccc32)c([N+](=O)[O-])c1 the fluorescence (KMESF) was inactive: 7.
For CP(=O)(Nc1ccc(SC(F)(F)F)cc1)Oc1ccccc1 (stereo unspecified), the fluorescence (KMESF) was inactive: 5.
For CCCOc1ccc(NP(C)(=O)Oc2ccc(Cl)cc2)cc1 (stereo unspecified), the fluorescence (KMESF) was inactive: 18.
In the case of COc1ccccc1OP(C)(=O)Nc1c(C)cccc1C (stereo unspecified), the fluorescence (KMESF) is reported as inactive: 9.
With CN1CCCCC1COC(=O)C1(O)c2ccccc2CCc2ccccc21 (stereo unspecified) the fluorescence (KMESF) was inactive: 15.
For CCOC(=O)C(CC)C1=NC(C)(C)Cc2ccccc21.O=[N+]([O-])c1cc([N+](=O)[O-])c(O)c([N+](=O)[O-])c1 (stereo unspecified), the fluorescence (KMESF) was inactive: 3.
In the case of O=[N+]([O-])c1cc([N+](=O)[O-])c(Nc2nnnn2CCO)c([N+](=O)[O-])c1, the fluorescence (KMESF) is reported as inactive: 8.
In the case of CC1=NCCc2c1[nH]c1ccccc21.O=[N+]([O-])c1cc([N+](=O)[O-])c(O)c([N+](=O)[O-])c1, the fluorescence (KMESF) is reported as inactive: 7.
In the case of O=C(O)c1cccc(Nc2c([N+](=O)[O-])cc([N+](=O)[O-])cc2[N+](=O)[O-])c1, the fluorescence (KMESF) is reported as inactive: 7.
For CP(=O)(Nc1cccc(Br)c1)Oc1ccccc1 (stereo unspecified), the fluorescence (KMESF) was inactive: 12.
In the case of Cc1cc(C)cc(OP(C)(=O)Nc2ccccn2)c1 (stereo unspecified), the fluorescence (KMESF) is reported as inactive: 15.
In the case of Cc1ccc(C)c(NP(C)(=O)Oc2ccccc2)c1 (stereo unspecified), the fluorescence (KMESF) is reported as inactive: 0.
In the case of Cc1cc(C)cc(OP(C)(=O)Nc2ccc(C)cc2C)c1 (stereo unspecified), the fluorescence (KMESF) is reported as inactive: 14.
With CCOC(=O)c1ccc(NP(C)(=O)Oc2cc(C)cc(C)c2)cc1 (stereo unspecified) the fluorescence (KMESF) was inactive: 14.
In the case of COc1ccccc1OP(C)(=O)Nc1cccc(Br)c1 (stereo unspecified), the fluorescence (KMESF) is reported as inactive: 9.
For CCN(CC)CCCOC(=O)C(O)(c1ccccc1)c1ccccc1, the fluorescence (KMESF) was inactive: 11.
For COc1ccc(OP(C)(=O)Nc2cccc(F)c2)cc1 (stereo unspecified), the fluorescence (KMESF) was inactive: 9.
For COc1ccccc1OP(C)(=O)Nc1cc(Cl)ccc1C (stereo unspecified), the fluorescence (KMESF) was inactive: 11.
For Cc1cc(C)cc(OP(C)(N)=O)c1 (stereo unspecified), the fluorescence (KMESF) was inactive: 11.
In the case of CCOC(=O)c1ccc(NP(C)(=O)Oc2ccccc2)cc1 (stereo unspecified), the fluorescence (KMESF) is reported as inactive: 6.
For Cc1ccc(NP(C)(=O)Oc2ccccc2)c(C)c1 (stereo unspecified), the fluorescence (KMESF) was inactive: 10.
In the case of COc1ccccc1OP(C)(=O)Nc1ccc(C)cc1 (stereo unspecified), the fluorescence (KMESF) is reported as inactive: 18.
For Cc1cccc(C)c1OP(C)(N)=O (stereo unspecified), the fluorescence (KMESF) was inactive: 11.
For CC(C)(C)c1ccc(OP(C)(=O)Nc2ccc(SC(F)(F)F)cc2)cc1 (stereo unspecified), the fluorescence (KMESF) was inactive: 12.
With O=[N+]([O-])c1ccc2c(c1)C=Nc1ccccc1O2 the fluorescence (KMESF) was inactive: 9.
In the case of COc1ccccc1OP(C)(=O)Nc1ccccc1 (stereo unspecified), the fluorescence (KMESF) is reported as inactive: 7.
With CP(=O)(Nc1ccccc1Br)Oc1ccccc1 (stereo unspecified) the fluorescence (KMESF) was inactive: 8.
With CP(=S)(Nn1cnnc1)Oc1ccccc1 (stereo unspecified) the fluorescence (KMESF) was inactive: 5.
With CP(=O)(Nc1ccccn1)Oc1ccc(Cl)cc1 (stereo unspecified) the fluorescence (KMESF) was inactive: 37.
In the case of CCOP(C)(=S)SCC(=O)NC(C)C(=O)O (stereo unspecified), the fluorescence (KMESF) is reported as inactive: 12.
For CCOC(=O)c1ccc(NP(C)(=O)Oc2ccc(OC)cc2)cc1 (stereo unspecified), the fluorescence (KMESF) was inactive: 16.
For Cc1cc(C)cc(OP(C)(=O)Nc2ccc(SC(F)(F)F)cc2)c1 (stereo unspecified), the fluorescence (KMESF) was inactive: 5.
With CCc1ccc(OP(C)(=O)N2CCN(c3ccc([N+](=O)[O-])cc3)CC2)cc1 (stereo unspecified) the fluorescence (KMESF) was inactive: 7.
For CP(=O)(NC(=O)Nc1ccccc1)Oc1ccccc1 (stereo unspecified), the fluorescence (KMESF) was inactive: 7.
With CP(=O)(Oc1ccccc1)OC(c1ccccc1)C(F)(F)F (stereo unspecified) the fluorescence (KMESF) was inactive: 10.
For Cc1cccc(C)c1OP(C)(=O)Nc1ccc(SC(F)(F)F)cc1 (stereo unspecified), the fluorescence (KMESF) was inactive: 11.
With CP(=O)(Nc1ccc(SC(F)(F)F)cc1)Oc1ccc(Cl)cc1 (stereo unspecified) the fluorescence (KMESF) was inactive: 9.
With CN(C)C(=O)c1c([N+](=O)[O-])cc([N+](=O)[O-])cc1[N+](=O)[O-] the fluorescence (KMESF) was inactive: 9.
With CP(=O)(Nc1ccc(Cl)cc1)Oc1ccc(F)cc1 (stereo unspecified) the fluorescence (KMESF) was inactive: 10.
With CC(C)(C)c1ccc(OP(C)(=O)O)cc1 the fluorescence (KMESF) was inactive: 26.
